How the values were obtained:
D(2) dopamine receptor = D(2) dopamine receptor (Rattus norvegicus, UniProt P61169); assay: Displacement of [3H]neomonapride from dopamine D2 receptor in rat corpus striatum
Rattus norvegicus = organism: Rattus norvegicus; assay: Selectivity ratio of […] in rat corpus striatum; assay type: tissue-based

Protein sequences, listed by entry. Tags and fused reporters are not part of them.
UniProt P61169, whole entry: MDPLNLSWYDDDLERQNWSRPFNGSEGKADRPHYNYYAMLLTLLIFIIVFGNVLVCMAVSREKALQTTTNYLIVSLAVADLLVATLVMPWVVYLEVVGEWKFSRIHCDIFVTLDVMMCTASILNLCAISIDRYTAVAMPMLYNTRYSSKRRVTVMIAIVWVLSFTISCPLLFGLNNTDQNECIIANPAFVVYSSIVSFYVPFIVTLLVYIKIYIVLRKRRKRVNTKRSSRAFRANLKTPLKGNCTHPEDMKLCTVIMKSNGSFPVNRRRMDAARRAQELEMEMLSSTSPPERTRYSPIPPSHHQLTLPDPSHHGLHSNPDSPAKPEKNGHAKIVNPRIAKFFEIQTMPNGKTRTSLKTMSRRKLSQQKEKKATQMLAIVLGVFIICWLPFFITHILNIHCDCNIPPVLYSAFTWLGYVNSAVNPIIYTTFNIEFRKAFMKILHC

Compound: CCCOc1cccc2c1-c1cc(O)cc3c1[C@@H](C2)N(C)CC3
- Ki (D(2) dopamine receptor): 230 nM
- Ratio (Rattus norvegicus): 7.8

Compound: CCCN1CCc2cc(OC)cc3c2[C@H]1Cc1ccccc1-3
- Ki (D(2) dopamine receptor): 230 nM
- Ratio (Rattus norvegicus): > 43

Reference: ChEMBL document CHEMBL1155098, “Synthesis and binding studies of 2-O- and 11-O-substituted N-alkylnoraporphines” (Bioorg Med Chem Lett, 2008)
